Laboratory results published in PMC7279473 (International Journal of Molecular Sciences, 2020).

Chains of the proteins cited; added tags and fusions are not shown.
UniProt Q59263, whole entry F128K: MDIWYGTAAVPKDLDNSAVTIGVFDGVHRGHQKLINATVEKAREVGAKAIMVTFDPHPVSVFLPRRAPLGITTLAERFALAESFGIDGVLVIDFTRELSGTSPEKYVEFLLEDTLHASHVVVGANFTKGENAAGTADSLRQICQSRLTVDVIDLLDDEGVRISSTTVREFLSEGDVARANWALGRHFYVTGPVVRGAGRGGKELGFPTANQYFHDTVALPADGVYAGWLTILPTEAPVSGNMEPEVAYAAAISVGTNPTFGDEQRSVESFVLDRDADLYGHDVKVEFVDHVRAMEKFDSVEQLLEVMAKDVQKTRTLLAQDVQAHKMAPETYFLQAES
UniProt Q59263, whole entry F128W: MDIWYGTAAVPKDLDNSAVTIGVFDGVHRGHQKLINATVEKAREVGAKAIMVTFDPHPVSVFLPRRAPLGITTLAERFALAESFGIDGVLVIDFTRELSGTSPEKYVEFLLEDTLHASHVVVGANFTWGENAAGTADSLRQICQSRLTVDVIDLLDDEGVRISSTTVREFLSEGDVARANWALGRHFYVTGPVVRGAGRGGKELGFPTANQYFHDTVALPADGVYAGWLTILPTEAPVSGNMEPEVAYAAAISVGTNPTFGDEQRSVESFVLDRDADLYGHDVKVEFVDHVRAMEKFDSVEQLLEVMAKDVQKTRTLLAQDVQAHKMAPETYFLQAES

Columns and labels:
[1] = biological target: T1, CaFADS (Corynebacterium ammoniagenes, UniProt Q59263, F128K); assay: biochemical
T1 construct: gene ribF

[2] = biological target: T2, CaFADS (Corynebacterium ammoniagenes, UniProt Q59263, F128W); assay: biochemical
T2 construct: gene ribF

Nc1ncnc2c1ncn2[C@@H]1O[C@H](COP(=O)(O)OP(=O)(O)OP(=O)(O)O)[C@@H](O)[C@H]1O [ATP]
Kd [1]: 14 ± 1 µM | Kd [2]: 19 ± 1 µM
